Results taken from PubChem BioAssay AID438 (Columbia University Molecular Screening Center, 2006).
Only a part is listed here, and it is no random draw. Some results for these compounds are left out of this collection, so the calls shown say nothing about other tests. Active and inactive are the calls of the source.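 How the source made its calls: active means inhibition above 20% together with a positive visual image hit; inconclusive means visual image hit but inhibition not above 20%; inactive means no visual image hit.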

assay: inhibitors of TNFa-induced NFkB p65 translocation, primary screen, imaging, HUVEC, MLSMR starter and 10KST1 sets (AID 438); settings: HUVEC TNFa-induced p65 nuclear translocation, at 2 µM, active compounds read high, 0% TNFa-plus-vehicle, 100% no-TNFa wells;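 further: compound added about 3h40 before a 20 min TNFalpha stimulation; signal is the nuclear over cytoplasmic p65 intensity ratio per well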

SMILES	inhibition
O=C(OC1CN2CCC1CC2)C(CO)(c1ccccc1)c1ccccc1 (stereo unspecified)	inactive: -0.8%
